Earlier results on 1 compound are cited in US7247645B2, “Dihydropyridine derivatives” (Ajinomoto Co., Inc., priority 1999, dated 2007).

By UniProt entry, the sequences of proteins in these tests, tags left out. Residues count along the entry.
UniProt P22002, whole entry: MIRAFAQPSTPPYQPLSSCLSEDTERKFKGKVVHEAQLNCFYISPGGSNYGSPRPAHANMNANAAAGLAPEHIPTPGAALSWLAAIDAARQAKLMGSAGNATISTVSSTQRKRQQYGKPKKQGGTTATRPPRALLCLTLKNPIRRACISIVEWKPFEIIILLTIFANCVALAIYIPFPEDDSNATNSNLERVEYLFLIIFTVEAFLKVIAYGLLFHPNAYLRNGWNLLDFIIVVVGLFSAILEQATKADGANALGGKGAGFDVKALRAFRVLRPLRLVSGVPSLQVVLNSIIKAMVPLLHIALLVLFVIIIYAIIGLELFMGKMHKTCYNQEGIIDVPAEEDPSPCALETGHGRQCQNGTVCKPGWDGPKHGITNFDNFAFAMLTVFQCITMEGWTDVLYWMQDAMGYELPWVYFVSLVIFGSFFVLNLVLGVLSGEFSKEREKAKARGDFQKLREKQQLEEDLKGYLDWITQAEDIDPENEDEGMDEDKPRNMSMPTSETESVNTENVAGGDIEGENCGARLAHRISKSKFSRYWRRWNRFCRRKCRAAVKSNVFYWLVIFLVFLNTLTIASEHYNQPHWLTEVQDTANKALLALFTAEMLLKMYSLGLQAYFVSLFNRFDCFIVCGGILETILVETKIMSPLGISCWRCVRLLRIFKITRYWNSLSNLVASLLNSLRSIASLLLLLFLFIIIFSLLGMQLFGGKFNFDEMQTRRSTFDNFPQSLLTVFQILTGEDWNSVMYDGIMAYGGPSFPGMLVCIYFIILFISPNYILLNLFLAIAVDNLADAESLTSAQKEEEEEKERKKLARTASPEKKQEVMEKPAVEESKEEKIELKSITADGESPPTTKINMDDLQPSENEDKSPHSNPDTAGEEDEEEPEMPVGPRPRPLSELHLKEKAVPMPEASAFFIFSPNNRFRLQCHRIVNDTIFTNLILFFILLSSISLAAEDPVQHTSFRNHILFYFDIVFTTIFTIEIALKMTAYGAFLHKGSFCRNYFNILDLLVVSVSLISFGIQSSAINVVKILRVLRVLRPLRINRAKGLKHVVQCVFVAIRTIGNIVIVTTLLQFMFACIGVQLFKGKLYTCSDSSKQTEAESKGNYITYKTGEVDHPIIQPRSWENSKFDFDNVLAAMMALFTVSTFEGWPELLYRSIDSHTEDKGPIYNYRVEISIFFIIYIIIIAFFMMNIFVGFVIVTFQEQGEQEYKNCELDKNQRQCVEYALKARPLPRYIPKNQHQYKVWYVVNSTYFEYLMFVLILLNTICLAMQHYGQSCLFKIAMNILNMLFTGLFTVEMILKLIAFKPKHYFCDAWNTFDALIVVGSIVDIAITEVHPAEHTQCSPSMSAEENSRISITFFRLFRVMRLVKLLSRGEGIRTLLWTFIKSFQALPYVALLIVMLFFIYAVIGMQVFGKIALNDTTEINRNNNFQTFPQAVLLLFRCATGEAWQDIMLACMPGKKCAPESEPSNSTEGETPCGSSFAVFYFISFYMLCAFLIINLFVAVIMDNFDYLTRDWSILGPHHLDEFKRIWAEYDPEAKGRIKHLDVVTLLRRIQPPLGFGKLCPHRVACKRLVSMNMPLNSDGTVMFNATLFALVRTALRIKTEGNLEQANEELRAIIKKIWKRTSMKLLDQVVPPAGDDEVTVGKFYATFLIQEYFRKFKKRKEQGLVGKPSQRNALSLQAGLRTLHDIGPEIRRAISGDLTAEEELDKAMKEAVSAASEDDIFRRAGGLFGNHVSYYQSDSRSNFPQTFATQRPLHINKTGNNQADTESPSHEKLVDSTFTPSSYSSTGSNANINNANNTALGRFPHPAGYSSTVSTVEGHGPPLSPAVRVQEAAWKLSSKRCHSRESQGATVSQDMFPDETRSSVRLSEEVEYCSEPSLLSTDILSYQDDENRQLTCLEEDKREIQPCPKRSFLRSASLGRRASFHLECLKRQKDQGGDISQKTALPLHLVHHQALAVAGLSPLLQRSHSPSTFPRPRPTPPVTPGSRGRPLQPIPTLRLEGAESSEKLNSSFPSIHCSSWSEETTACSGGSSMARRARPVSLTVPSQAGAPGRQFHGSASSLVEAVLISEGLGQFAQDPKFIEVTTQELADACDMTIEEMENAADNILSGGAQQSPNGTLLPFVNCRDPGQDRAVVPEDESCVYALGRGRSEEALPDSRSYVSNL
UniProt P54287, whole entry partner: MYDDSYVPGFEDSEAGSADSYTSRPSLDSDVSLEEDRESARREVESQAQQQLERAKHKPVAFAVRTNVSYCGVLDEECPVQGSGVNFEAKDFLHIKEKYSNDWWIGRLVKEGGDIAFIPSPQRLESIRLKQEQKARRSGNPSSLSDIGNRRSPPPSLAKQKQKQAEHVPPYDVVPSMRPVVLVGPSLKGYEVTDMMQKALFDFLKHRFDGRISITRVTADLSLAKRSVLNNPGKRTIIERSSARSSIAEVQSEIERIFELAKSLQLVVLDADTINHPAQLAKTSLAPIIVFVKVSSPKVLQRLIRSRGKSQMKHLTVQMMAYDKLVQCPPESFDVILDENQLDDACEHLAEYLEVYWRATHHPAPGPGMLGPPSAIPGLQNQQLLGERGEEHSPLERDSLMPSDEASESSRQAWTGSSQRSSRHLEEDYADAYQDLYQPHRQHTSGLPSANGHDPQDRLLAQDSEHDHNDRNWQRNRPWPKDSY
UniProt P54290, 25-1091 partner limits assumed: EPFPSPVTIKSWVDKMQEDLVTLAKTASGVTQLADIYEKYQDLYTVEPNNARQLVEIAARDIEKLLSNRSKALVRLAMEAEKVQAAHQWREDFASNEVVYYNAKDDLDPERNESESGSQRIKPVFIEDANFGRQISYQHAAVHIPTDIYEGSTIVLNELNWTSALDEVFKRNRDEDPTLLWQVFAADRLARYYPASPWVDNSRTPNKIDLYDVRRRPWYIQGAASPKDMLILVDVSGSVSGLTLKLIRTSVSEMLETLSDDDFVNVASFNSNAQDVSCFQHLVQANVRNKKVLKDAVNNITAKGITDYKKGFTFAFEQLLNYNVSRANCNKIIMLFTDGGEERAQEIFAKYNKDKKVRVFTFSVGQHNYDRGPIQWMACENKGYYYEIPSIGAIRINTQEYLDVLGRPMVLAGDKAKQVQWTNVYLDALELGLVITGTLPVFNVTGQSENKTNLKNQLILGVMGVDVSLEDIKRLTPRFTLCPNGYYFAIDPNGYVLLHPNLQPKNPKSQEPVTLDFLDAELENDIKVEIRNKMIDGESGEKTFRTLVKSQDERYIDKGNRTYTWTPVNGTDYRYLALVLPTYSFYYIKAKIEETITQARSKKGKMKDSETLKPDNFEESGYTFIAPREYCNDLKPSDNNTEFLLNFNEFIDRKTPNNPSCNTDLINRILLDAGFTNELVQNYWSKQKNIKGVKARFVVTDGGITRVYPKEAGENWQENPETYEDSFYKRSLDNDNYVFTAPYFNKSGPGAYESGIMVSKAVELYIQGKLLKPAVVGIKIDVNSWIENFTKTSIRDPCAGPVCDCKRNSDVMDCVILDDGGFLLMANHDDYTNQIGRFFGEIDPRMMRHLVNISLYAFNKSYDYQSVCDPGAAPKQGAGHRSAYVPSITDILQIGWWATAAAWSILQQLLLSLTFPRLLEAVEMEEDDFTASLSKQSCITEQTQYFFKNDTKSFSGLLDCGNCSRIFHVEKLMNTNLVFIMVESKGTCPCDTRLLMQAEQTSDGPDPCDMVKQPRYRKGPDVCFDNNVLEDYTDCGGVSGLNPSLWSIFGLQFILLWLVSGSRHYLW

The term IC50 denotes the concentration that inhibits the measured activity by half.

For this data set, the target named is L-type calcium channel (Rattus norvegicus, UniProt P22002). Conditions: read-out: antagonistic effect on L-type calcium channels IC50; comparison compound of WO 9849144; cited from earlier work.

The structures appear in SMILES notation.

Regarding `COc1cccc(C2C(C(=O)O)=C(C)NC(C)=C2C(=O)OCC=Cc2ccccc2)c1` (stereo not shown), the IC50 was 250 nM.
